The test system of the series is hOAT1-HEK293 cells. Nature of the series: Cytotoxicity of Imp, CCK-8 assay, hOAT1-HEK293 cells. The series is classed as cell-based, human. The note with it: Imp 1 mmol/L plus the named inhibitor 200 μmol/L, 24 h. Background: Tetrazolium assays rely on reduction of a dye to a coloured formazan, in cell work by metabolically active cells.

The record followed here is article PMC6804466 (Acta Pharmaceutica Sinica. B, 2019).

For `CCCN(CCC)S(=O)(=O)c1ccc(C(=O)O)cc1` [Prb, probenecid], the “Survival rate of hOAT1-HEK293 cells with Imp in the presence of Cil or Prb” value came out at 55.4%.
